Test results published in US6270979A (priority 1998, dated 2001).

Amino acid sequences for entries named in this document (tags omitted).
UniProt P33535, whole entry: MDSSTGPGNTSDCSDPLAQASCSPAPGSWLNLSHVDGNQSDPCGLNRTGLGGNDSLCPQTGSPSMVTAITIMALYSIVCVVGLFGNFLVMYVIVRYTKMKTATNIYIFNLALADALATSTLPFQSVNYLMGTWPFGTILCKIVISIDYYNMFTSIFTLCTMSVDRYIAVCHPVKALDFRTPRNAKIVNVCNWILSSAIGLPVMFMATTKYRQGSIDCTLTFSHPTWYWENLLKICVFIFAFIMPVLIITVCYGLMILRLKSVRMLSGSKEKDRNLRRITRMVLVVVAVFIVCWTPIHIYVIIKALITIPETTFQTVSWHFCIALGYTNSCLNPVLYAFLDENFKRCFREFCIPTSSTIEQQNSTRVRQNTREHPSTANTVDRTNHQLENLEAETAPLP

Legend:
[1] = test system: D2 receptor (long splice isoform); assay: D2 receptor cAMP assay in stably transfected HEK293 cells; assay type: cell-based; conditions: quinpirole pretreatment and washing
[2] = target: T1, μ opioid receptor (Rattus norvegicus, UniProt P33535); conditions: U293-μ, 10 μM forskolin
[3] = target: T1, μ opioid receptor; assay: Receptor recycling through endocytic vesicles; assay type: cell-based; parameters: expressed in transfected cells
[4] = test system: muscarinic m1 receptor mutant m1-E360A; assay type: cell-based

## CCCN1CCC[C@@H]2Cc3n[nH]cc3C[C@H]21 [quinpirole]
[1]
  spontaneous and negative antagonist induced cAMP overshoots after pretreatment: Spontaneous and negative antagonist induced cAMP overshoots were observed

## CN1CC[C@]23c4c5ccc(O)c4O[C@H]2[C@@H](O)C=C[C@H]3[C@H]1C5 [morphine]
[2]
  spontaneous cAMP overshoot after morphine pretreatment: measurable spontaneous cAMP overshoot
[3]
  receptor recycling through endocytic vesicles: but not morphine

## C[N+](C)(C)CCOC(N)=O [carbochol]
[4]
  effect on m1-E360A basal activity: enhanced the basal activity
